Here are results for three molecules from patent publication US20190021380A1 (priority 2014, published 2019).

By UniProt entry, the sequences of proteins in these tests, tags left out. Chains listed by the source or under a name are the forms on record and can include a tag or linker. Residues count along the entry.
UniProt E3UMS2, 1-296: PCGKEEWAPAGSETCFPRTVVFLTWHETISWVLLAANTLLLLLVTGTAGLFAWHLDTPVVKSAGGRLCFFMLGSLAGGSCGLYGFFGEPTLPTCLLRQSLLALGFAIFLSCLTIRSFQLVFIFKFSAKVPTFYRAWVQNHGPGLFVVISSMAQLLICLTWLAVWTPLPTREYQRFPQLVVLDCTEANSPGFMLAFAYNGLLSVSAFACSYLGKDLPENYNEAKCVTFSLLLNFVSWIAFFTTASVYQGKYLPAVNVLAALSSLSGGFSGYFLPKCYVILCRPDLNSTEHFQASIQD
UniProt Q49KI5, with tags, fused parts or gaps E206Q/F654L/N523D partner limits assumed: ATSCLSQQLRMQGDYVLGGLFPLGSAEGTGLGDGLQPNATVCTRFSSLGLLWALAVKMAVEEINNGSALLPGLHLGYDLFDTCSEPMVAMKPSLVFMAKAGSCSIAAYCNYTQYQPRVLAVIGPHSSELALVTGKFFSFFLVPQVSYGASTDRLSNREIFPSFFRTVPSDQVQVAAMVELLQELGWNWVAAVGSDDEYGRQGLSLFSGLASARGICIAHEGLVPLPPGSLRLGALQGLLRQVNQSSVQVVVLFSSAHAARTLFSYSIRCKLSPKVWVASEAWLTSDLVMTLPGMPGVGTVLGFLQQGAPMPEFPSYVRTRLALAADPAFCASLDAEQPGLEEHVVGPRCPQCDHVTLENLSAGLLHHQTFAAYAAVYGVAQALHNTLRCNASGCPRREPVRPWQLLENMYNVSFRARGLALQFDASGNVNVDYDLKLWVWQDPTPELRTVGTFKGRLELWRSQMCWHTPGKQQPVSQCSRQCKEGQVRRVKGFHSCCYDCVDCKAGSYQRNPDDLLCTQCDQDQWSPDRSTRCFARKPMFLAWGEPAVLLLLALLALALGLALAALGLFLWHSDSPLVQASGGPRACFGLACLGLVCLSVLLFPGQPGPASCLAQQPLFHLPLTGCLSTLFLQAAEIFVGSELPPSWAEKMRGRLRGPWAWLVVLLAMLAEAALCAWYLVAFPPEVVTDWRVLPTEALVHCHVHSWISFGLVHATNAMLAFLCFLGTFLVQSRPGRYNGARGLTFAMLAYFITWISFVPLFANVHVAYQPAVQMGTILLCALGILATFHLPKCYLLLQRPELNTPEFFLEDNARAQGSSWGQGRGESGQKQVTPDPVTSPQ

Read-outs that look alike come from different tables or passages of the source.

This assay concerns the target cat T1R1/T1R3 receptor (Felis catus, UniProt E3UMS2).

With `Nc1nc2c(ncn2[C@H]2C[C@H](O)[C@@H](COP(O)(O)=S)O2)c(=O)[nH]1`, where the note is “in the presence of alanine, in words, tested form: sodium salt”, the “function as activators of T1R1/T1R3” value is “activators of T1R1/T1R3”. Under “read-out: EC50-with Ala, tested form: sodium salt”, the EC50 stood at 10 µM. For the setting “tested form: sodium salt”, the “Max. resp. % of IMP” value was 86.7 % of IMP and the “Threshold” value worked out at 0.0025 mM.
For `Nc1nc2c(ncn2[C@@H]2O[C@H](COP(=O)(O)O)[C@@H](O)[C@H]2O)c(=O)[nH]1` [GMP, guanosine monophosphate, reference compound], where the note is “tested form: disodium salt”, the result was active, the EC50 stood at 30 µM, the “Max resp % of IMP” value is 132.1 % of IMP and the “Thres” value came out at 0.008 mM.
As to `O=P(O)(O)OC[C@H]1O[C@@H](n2cnc3c(=S)[nH]cnc32)[C@H](O)[C@@H]1O`, the result was active and the “Thres” value was 0.005 mM.
